In patent US20230414557A1, “NEW THERAPY CONCEPT FOR THE TREATMENT OF CORONA INFECTIONS, ESPECIALLY COVID-19 INFECTIONS” (priority 2020, published 2023):

Test system: NFkB and MAPK pathways
Experiment: S1 spike protein stimulated monocytes, Western blot of NFkB and MAPK pathways
Details: pretreated with 1 mM 1,8-cineole for 1 h, 5 μg/mL S1 spike protein

CC12CCC(CC1)C(C)(C)O2 [1,8-cineole, 1,3,3-trimethyl-2-oxabicyclo[2.2.2]octane]
S1-activation of monocytes: significantly inhibits | phosphorylations of IkBa, NFkB, Akt and Erk1/2 (Western blot): can be inhibited
